Laboratory results reported in US20240383959A1, “CELL-FREE METHODS AND COMPOSITIONS COMPRISING TAGLESS THERAPEUTIC HORMONES” (Northwestern University, priority 2021, published 2024).

Amino acid sequences for entries named in this document (tags omitted). Residues count along the entry.
UniProt P43220, 24-139 limits assumed: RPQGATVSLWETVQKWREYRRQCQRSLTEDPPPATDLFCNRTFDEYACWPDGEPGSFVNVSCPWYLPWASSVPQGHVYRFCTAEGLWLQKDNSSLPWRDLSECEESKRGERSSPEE

What was measured:
[1] = target: T1, extracellular domain of the GLP-1 receptor (Homo sapiens, UniProt P43220); test: AlphaLISA cross-titration of GLP-1 and GLP-1 receptor; assay type: binding
T1 construct: Fc-tagged extracellular domain of the GLP-1 receptor; purchased Sino Biological 13944-H02H

GLP-1 receptor = target: T2, GLP-1 receptor (Homo sapiens, UniProt P43220); test: Biolayer interferometry (BLI) of GLP-1 binding to its receptor; settings: compared with negative control without receptor on sensor tip; undiluted CFPS GLP-1 or 100 μg/ml commercial GLP-1
T2 construct: purchased MyBioSource.com MBS949592

Glucagon like peptide-1 [GLP-1]
GLP-1 binding to its receptor (AlphaLISA) ([1]; sFLAG tagged GLP-1, anti-FLAG donor beads, Fc-tagged receptor extracellular domain, Protein A acceptor beads): detected GLP-1 binding to its receptor
AlphaLISA binding signal above the background noise ([1]; sFLAG tagged GLP-1, low signal relative to GH): more than 3 standard deviations
GLP-1 binding to its receptor (BLI) (GLP-1 receptor): no binding detected at a level greater than the negative control
